Results: patent US20250359578A1, “WATER-SOLUBLE CREATINE AGGLOMERATE” (Alzchem Trostberg GmbH, priority 2022, published 2025)

Assay: Determination of the dissolution rate (mass of filter residue)
Format: physicochemical
Details: summary of Table 4
Text: The moist filter residue is dried. The mass of the filter residue serves as a measure of the dissolution rate; the lower the mass, the better the dissolution rate.

## CN(CC(=O)O)C(=N)N.O [creatine monohydrate]
  dissolution rate (in words): slow dissolution rate
